Amino acid sequences for entries named in this document (tags omitted). Residues count along the entry.
UniProt Q9R1M7, 24-1135: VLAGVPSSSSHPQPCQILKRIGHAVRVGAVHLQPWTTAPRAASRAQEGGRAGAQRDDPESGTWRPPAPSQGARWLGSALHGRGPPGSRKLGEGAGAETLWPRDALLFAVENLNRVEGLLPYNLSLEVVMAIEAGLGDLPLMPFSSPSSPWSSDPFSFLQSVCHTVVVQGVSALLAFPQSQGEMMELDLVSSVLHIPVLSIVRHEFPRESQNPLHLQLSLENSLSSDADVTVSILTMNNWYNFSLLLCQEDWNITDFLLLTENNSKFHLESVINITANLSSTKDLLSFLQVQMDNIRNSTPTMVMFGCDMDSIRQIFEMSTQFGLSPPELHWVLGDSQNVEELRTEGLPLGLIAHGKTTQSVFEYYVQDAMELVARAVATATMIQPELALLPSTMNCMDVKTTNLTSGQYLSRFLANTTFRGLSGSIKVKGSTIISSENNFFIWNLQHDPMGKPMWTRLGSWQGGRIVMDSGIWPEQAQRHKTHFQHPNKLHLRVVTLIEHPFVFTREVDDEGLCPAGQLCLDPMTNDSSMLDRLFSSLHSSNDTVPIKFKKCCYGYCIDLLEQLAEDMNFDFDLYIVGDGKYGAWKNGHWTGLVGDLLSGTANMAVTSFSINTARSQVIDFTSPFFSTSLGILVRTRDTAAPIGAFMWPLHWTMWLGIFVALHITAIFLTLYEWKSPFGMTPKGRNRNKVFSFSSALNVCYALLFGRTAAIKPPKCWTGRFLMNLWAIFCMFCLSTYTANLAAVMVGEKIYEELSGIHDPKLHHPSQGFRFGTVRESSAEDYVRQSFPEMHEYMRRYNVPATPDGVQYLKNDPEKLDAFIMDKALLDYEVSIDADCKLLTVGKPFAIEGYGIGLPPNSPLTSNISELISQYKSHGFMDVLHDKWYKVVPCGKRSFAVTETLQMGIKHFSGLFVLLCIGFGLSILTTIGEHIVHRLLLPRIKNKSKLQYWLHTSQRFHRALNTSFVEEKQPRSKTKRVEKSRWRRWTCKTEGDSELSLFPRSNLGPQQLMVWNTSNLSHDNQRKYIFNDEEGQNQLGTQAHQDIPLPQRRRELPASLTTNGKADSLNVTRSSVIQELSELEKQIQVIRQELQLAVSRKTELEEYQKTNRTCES
UniProt Q9R1M7, 24-1135 C859S/C913S: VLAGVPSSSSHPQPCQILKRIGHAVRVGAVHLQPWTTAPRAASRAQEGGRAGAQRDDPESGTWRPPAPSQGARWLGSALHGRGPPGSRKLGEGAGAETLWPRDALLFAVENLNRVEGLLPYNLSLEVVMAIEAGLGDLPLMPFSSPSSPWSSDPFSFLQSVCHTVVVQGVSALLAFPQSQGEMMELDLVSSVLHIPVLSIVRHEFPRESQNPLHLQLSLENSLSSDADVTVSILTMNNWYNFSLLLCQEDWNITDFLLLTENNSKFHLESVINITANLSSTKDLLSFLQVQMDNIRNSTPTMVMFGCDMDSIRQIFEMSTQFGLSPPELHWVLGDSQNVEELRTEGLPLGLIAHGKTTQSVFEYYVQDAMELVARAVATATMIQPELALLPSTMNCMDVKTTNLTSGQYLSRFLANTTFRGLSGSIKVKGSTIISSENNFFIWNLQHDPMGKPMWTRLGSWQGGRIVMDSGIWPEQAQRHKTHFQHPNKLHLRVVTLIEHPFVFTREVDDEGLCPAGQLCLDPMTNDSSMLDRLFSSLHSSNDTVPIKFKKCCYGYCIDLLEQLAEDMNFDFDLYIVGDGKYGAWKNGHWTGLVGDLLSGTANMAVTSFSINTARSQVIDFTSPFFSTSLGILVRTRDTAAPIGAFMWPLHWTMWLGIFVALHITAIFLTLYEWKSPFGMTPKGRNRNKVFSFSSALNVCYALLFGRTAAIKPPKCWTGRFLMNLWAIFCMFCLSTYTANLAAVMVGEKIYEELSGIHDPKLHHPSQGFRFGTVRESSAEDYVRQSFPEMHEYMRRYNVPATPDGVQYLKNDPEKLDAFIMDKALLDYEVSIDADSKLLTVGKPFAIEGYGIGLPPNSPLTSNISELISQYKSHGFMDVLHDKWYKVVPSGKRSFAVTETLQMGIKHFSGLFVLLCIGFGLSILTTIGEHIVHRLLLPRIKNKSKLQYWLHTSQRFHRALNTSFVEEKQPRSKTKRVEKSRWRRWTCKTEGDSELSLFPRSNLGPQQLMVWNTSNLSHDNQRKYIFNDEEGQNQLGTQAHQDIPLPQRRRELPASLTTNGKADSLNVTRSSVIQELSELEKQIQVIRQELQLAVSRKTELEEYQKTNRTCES

In article PMC6233196 (Nature Communications, 2018):

Columns and labels:
GluN1/GluN3A receptors [1] = target: T1, GluN1/GluN3A receptors (Rattus norvegicus, UniProt P35439+Q9R1M7); experiment: Whole-cell patch-clamp of glycine currents in HEK293 cells expressing wild-type GluN1/GluN3A; details: for Washout (dissociation) time constant τoff, active state: continuous glycine; for Washout (dissociation) time constant τoff, resting state: pulses of glycine
GluN1/GluN3A receptors [2] = target: T1, GluN1/GluN3A receptors; experiment: Two-electrode voltage-clamp in Xenopus oocytes expressing wild-type GluN1/GluN3A; assay type: cell-based; parameters: while we record from intact (i.e. full length) membrane-imbedded receptors; expressed in transfected cells; host or cells: HEK293 cells
Description: (§1) Oocytes from Xenopus lævis (Xenopus Express, Rennes, France) were used for heterologous expression of recombinant GluN1/GluN3A receptors studied using two-electrode voltage-clamp (TEVC). TEVC recordings were performed 3–4 days following injection. […] Each oocyte was co-injected with a mixture of GluN1 and GluN3A cDNA at a concentration of 50 ng/µl and at a 1:1 ratio. The standard external solution contained (in mM): 100 NaCl, 2.5 KCl, 0.3 BaCl2, 5 HEPES, 0.01 DTPA (diethylenetriamine-pentaacetic acid), pH 7.3. […]
(§2) EC50, a and nH were set as free parameters.

[3] = target: GluN1-CS/GluN3A-CS receptors (Rattus norvegicus, UniProt P35439+Q9R1M7, C744S/C798S/C859S/C913S)
Description: as §1, §2

[4] = target: GluN1/GluN3A-C859S-C913S receptors (Rattus norvegicus, UniProt P35439+Q9R1M7, C859S/C913S); details: CGP-78608 500 nM, glycine 100 µM
Description: (§3) Cells were transfected using polyethylenimine with GluN1, GluN3A and GFP plasmids at a 1:3:1 ratio (0.3, 0.9 and 0.3 ng/µl respectively). Recordings were performed 24–48 h following cell transfection. […] EC50, a and nH were set as free parameters.

[5] = target: GluN1-C744S-C798S/GluN3A receptors (Rattus norvegicus, UniProt P35439+Q9R1M7, C744S/C798S); details: CGP-78608 500 nM, glycine 100 µM
Description: as §3

[6] = target: GluN1-C744S-C798S/GluN3A-C859S-C913S receptors (Rattus norvegicus, UniProt P35439+Q9R1M7, C744S/C798S/C859S/C913S); details: CGP-78608 500 nM, glycine 100 µM
Description: as §3

[7] = CGP-78608 500 nM pre-incubated, glycine 1 mM, n = 5
[8] = CGP-78608 500 nM, listed as CGP
[9] = in presence of 500 nM CGP-78608

## C[C@@H](NCc1cc(Br)cc2[nH]c(=O)c(=O)[nH]c12)P(=O)(O)O.Cl [CGP-78608, [(1 S)-1-[[(7-Bromo-1,2,3,4-tetrahydro-2,3-dioxo-5-quinoxalinyl)methyl]amino]ethyl]phosphonic acid hydrochloride]
GluN1/GluN3A receptors [1]; 100 µM glycine, peak current
  Hill coefficient nH of potentiation dose-response curve: 1.45
GluN1/GluN3A receptors [1]; [7]
  Potentiation of peak current: > 100 fold
  Potentiation of steady-state current: > 1000 fold
GluN1/GluN3A receptors [1]; CGP-78608 500 nM
  Washout (dissociation) time constant τoff, active state: 27.6 ± 6.3 s
  Washout (dissociation) time constant τoff, resting state: 22.5 ± 4.2 s
GluN1/GluN3A receptors [1]; [8]
  Washout (dissociation) time constant τoff, active state: 28 s
  Washout (dissociation) time constant τoff, resting state: 17 s
GluN1/GluN3A receptors [1]; CGP-78608 500 nM, receptors pre-occupied with glycine
  Potentiation when applied after glycine (post-Gly): only minimal potentiation
GluN1/GluN3A receptors [1]; washout, same cell
  Reversibility of potentiation: fully reversible
GluN1/GluN3A receptors [1]; with CGP-78608 500 nM, glycine 100 µM, control 0.30 ± 0.03
  Extent of desensitization Iss/Ipeak: 0.80 ± 0.03
GluN1/GluN3A receptors [1]; with CGP-78608 500 nM, glycine 100 µM, control 81 ± 13 ms
  Desensitization kinetics τdes: 1642 ± 183 ms
GluN1/GluN3A receptors [2]; CGP-78608 500 nM
  Potentiation when applied after glycine (post-Gly), steady-state: greatly reduced
GluN1/GluN3A receptors [2]; CGP-78608 500 nM pre-applied
  Potentiation of glycine responses in oocytes: massively potentiates

## NCC(=O)O [glycine, Glycine]
GluN1/GluN3A receptors [1]; wt receptors, CGP-78608 500 nM, glycine 100 µM
  Glycine off-relaxation τoff: 205 ± 110 ms
[3]; [9]
  Glycine nH: 1.21
[3]; in presence of CGP-78608 500 nM
  Decrease in glycine EC50, mutant vs wild-type: > 10 fold and 13 fold
GluN1/GluN3A receptors [2]; control, no CGP-78608
  Glycine nH: 1.39
GluN1/GluN3A receptors [2]; in presence of 50 nM CGP-78608
  Glycine nH: 1.58
GluN1/GluN3A receptors [2]; [9]
  Glycine nH: 1.47
[4]
  Glycine off-relaxation τoff: 2217 ± 91 ms
[5]
  Glycine off-relaxation τoff: 442 ± 208 ms
[6]
  Glycine off-relaxation τoff: 2098 ± 196 ms

Several values for one entry are separate records, joined by “and”; a condition that tells them apart may be missing. Identical values can stand only once.
